Compound activity deposited in PubChem by Broad Institute.
MLL AF4-AF9 inh = MLL-AF4/AF9 protein interaction inhibition; inhibition, % at 10 µM; P42568; AlphaScreen, biotin-AF4 peptide binding to FLAG-AF9; 350,000 tested, 0.47% active;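 active = every replicate reaching a set inhibition limit, whatever the replicate mean, cut at about 25% in these data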;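 note: 0% = plate neutral control median and 100% = total signal loss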
UUG fidelity = modulators of start codon recognition fidelity in yeast; AID 602363; activity score, % at 18.7 µM; S. cerevisiae UUG-firefly luciferase reporter, luminescence/redox ratio; 0.13% of 350,000 active;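 active = replicate mean at a twofold rise or more, about +100% in these data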;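 note: firefly luciferase made from a UUG start codon reports start codon fidelity; reporter light over untreated wells divided by growth signal over untreated wells; some hits fall short of that in this replicate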
E-selectin induc = E-selectin induction on HUVECs; P16581; HUVEC E-selectin immunofluorescence imaging; normalized: neutral wells 0, TNF-alpha wells 100; activation, % at 7.58 µM; 260,000 tested, 0.37% active; AID 686992;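 active = mean E-selectin-positive cell signal at least 10% of the positive control, reached in at least 60% of replicates, without over 20% cell loss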
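Assay system: HUVEC, human umbilical vein endothelial cells / Amount: 3,000 HUVEC/well / Controls: TNF-alpha positive control, DMSO neutral control / Compound dosing: single concentration / Medium: EGM-2 over gelatin coat / Evaluation: percent E-selectin-positive cells / Signal: immunofluorescence imaging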
S100A4 MyoIIA = blocks human S100A4 binding to myosin IIA peptide; P26447; S100A4/TAMRA-MyoIIA peptide fluorescence polarization; inhibition, % at 10.7 µM; 360,000 tested, 0.14% active; AID 652163;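 active = mean inhibition of at least 70% across replicates, with every replicate also reaching that level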
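Material: S100A4 monomer (human). Medium: Calcium-containing HEPES buffer, pH 7.2. Probe or stimulus: labelled myosin peptide probe, 5 nM. Compound dosing: one concentration per compound. Timing: polarization read 5 min after assay mix addition, stable 5–60 min. Benchmarks: DMSO as neutral control, TFP as positive control.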
ARNT-TACC3 inh = disrupts binding between human ARNT and TACC3 | AID 623870 | 390,000 tested, 0.66% active | inhibition, % at 9.99 µM | AlphaScreen His-ARNT PAS-B/GST-TACC3 binding, luminescence; TACC3 fragment carries E629A point mutation | Q9Y6A5;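 active = mean inhibition of replicates at least 50% and at least half of replicates each reaching 50%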;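 note: 0% = complete ARNT plus TACC3 wells and 100% = ARNT alone without TACC3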
ERAP1 HTS inh = ERAP1 (human) enzyme inhibition | 340,000 tested, 0.15% active | Q9NZ08 | inhibition, % at 10.7 µM | recombinant ERAP1, Leu-AMC fluorescence, 60 min;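 active = mean replicate inhibition of at least 30%, or all replicates individually reaching that 30% level; inactive = mean below 30% and not every replicate reaching it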;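 note: 0% = neutral control wells and 100% = L-leucinethiol positive control wells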
AlphaScreen ctr = AlphaScreen artifact in ARNT/TACC3 counter-screen; shares compounds with ARNT-TACC3 inh; His-ARNT PASB-GST AlphaScreen artifact counter-screen, luminescence; AC50, µM (top dose mostly 68 µM), for inactives: at the highest dose activity change, negative = signal decrease; 1,200 tested, 50% active; AID 651705;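 active = every separate test run was called active for a drop in luminescence, with AC50 within twice the top valid dose, actives reach about 71 µM in these data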
Active calls of the source: *; nt = not tested or not shown; [ ] = remark or other dose. Compounds with a hit are over-represented: about 1.3% of the library has one in this group of screens.

Screens by letter – A = MLL AF4-AF9 inh; B = UUG fidelity; C = E-selectin induc; D = S100A4 MyoIIA; E = ARNT-TACC3 inh; F = ERAP1 HTS inh; G = AlphaScreen ctr
(1) O=C(C[C@@H]1C[C@@H]2c3cc(NS(=O)(=O)c4ccc(F)cc4)ccc3O[C@@H]2[C@@H](CO)O1)NCc1ccccc1F
  A = -3 | B = 11 | C = 0 | D = -2 | E = 0 | F = -2 | G = nt
(2) N#CC1=C(N)Oc2c(ccc3cccnc23)C1c1ccccc1 (stereo not drawn)
  A = 6 | B = -29 | C = 2 | D = -2 | E = 57* | F = 3 | G = 71µM*
(3) Cc1oc(C)c2c(=O)ccc3c(c12)OC(N)=C(C#N)C3c1ccccc1 (stereo not drawn)
  A = nt | B = -10 | C = nt | D = nt | E = 7 | F = nt | G = nt
(4) N#Cc1ccsc1NC(=O)c1ccccn1
  A = nt | B = -17 | C = nt | D = nt | E = 64* | F = nt | G = -11%
(5) C/C=C/c1cnc2c(c1)C(=O)N([C@@H](C)CO)C[C@H](C)[C@H](CN(C)C(=O)Nc1ccc(OC)cc1)O2
  A = -2 | B = -1 | C = 1 | D = 11 | E = 1 | F = 1 | G = nt
(6) COc1ccccc1Nc1cc2cc(Br)ccc2c(=O)[nH]1
  A = nt | B = -79 | C = 1 | D = -7 | E = 55* | F = 1 | G = -26%
(7) CN(C)c1ccc2c(c1)[C@@H]1C[C@@H](CC(=O)N3CCOCC3)O[C@@H](CO)[C@@H]1O2
  A = -3 | B = nt | C = 1 | D = 27 | E = 70* | F = -5 | G = -8%[38 µM]
(8) CC(=O)N(C)C1=C(O)c2ccccc2C(=O)C1=O
  A = nt | B = -27 | C = nt | D = nt | E = 11* | F = nt | G = 5%
(9) COc1ccc(CCNC(=O)CSc2nnc3ccc(-c4ccccn4)nn23)cc1
  A = 0 | B = -20 | C = 0 | D = -14 | E = 48* | F = -3 | G = 68µM*
(10) c1ccc(CN2CCN(Cc3c[nH]c4ccccc34)CC2)cc1
  A = 5 | B = -11 | C = 0 | D = -3 | E = -9 | F = -2 | G = nt

Gathered by group, those above with a halogen (2)
Screens by letter – A = MLL AF4-AF9 inh; B = UUG fidelity; C = E-selectin induc; D = S100A4 MyoIIA; E = ARNT-TACC3 inh; F = ERAP1 HTS inh; G = AlphaScreen ctr
(1) O=C(C[C@@H]1C[C@@H]2c3cc(NS(=O)(=O)c4ccc(F)cc4)ccc3O[C@@H]2[C@@H](CO)O1)NCc1ccccc1F
  A = -3 | B = 11 | C = 0 | D = -2 | E = 0 | F = -2 | G = nt
(6) COc1ccccc1Nc1cc2cc(Br)ccc2c(=O)[nH]1
  A = nt | B = -79 | C = 1 | D = -7 | E = 55* | F = 1 | G = -26%

Following part
Screens by letter – A = MLL AF4-AF9 inh; B = UUG fidelity; C = E-selectin induc; D = S100A4 MyoIIA; E = ARNT-TACC3 inh; F = ERAP1 HTS inh; G = AlphaScreen ctr
(11) Cc1cccc(NCc2ccc(O)c3ncccc23)c1
  A = 3 | B = -10 | C = 1 | D = -6 | E = -4 | F = 1 | G = nt
(12) OCC1CCN(Cc2ccc(O)c3ncccc23)CC1
  A = nt | B = nt | C = nt | D = nt | E = nt | F = nt | G = 0.41µM*
(13) Oc1ccc(CN2CCN(Cc3ccccc3)CC2)c2cccnc12
  A = nt | B = -27 | C = nt | D = nt | E = 65* | F = nt | G = 6µM*
(14) CN1CCN(C2CCN(Cc3ccc(O)c4ncccc34)CC2)CC1
  A = 47* | B = -36 | C = 0 | D = -1 | E = 65* | F = -2 | G = 14µM*
(15) Oc1ccc(CNC2CCc3ccccc32)c2cccnc12 (stereo not drawn)
  A = nt | B = nt | C = nt | D = nt | E = nt | F = nt | G = 3.2µM*
(16) Cc1ccccc1-c1cnc2c(c1)C(=O)N([C@@H](C)CO)C[C@H](C)[C@H](CN(C)C(=O)c1ccc(F)cc1)O2
  A = -5 | B = 6 | C = 0 | D = -2 | E = -4 | F = 2 | G = nt
(17) C[C@@H]1CN([C@H](C)CO)C(=O)Cc2cc(NC(=O)CCCCCC(=O)Nc3ccccc3N)ccc2O[C@@H]1CN(C)C(=O)NC1CCCCC1
  A = 2 | B = 8 | C = 0 | D = -4 | E = -9 | F = 1 | G = nt
(18) C[C@@H]1CN([C@@H](C)CO)C(=O)Cc2cc(NC(=O)CCC(F)(F)F)ccc2O[C@H]1CN(C)C(=O)Nc1cccc2ccccc12
  A = nt | B = -10 | C = 0 | D = nt | E = nt | F = nt | G = nt
(19) O=C(Nc1cccnc1)c1cc(-c2ccccc2)on1
  A = nt | B = -27 | C = nt | D = nt | E = -3 | F = nt | G = nt
(20) O=C(Nc1nnc(-c2ccccc2)s1)c1cc(-c2ccccc2)on1
  A = nt | B = nt | C = nt | D = nt | E = nt | F = nt | G = -7%[38 µM]
(21) O=C(Nc1ncc(-c2ccccc2)o1)c1cc(-c2ccccc2)on1
  A = nt | B = nt | C = nt | D = nt | E = nt | F = nt | G = -4%[38 µM]
(22) O=C(Nc1nc2ccccc2s1)c1cc(-c2ccccc2)on1
  A = nt | B = nt | C = nt | D = nt | E = nt | F = nt | G = 0%[38 µM]
(23) O=C(Nc1ncc2ccccc2n1)c1cc(-c2ccccc2)on1
  A = nt | B = nt | C = nt | D = nt | E = nt | F = nt | G = 6%[38 µM]
(24) CC(C)NC(=O)N[C@H]1CC[C@H](CCNC(=O)C2CCCC2)O[C@@H]1CO
  A = nt | B = -3 | C = 0 | D = -4 | E = nt | F = nt | G = nt
(25) CN(C)CC(=O)N1[C@H](CO)[C@@H](c2ccccc2)C12CN(C(=O)C1CCCC1)C2
  A = -2 | B = nt | C = 0 | D = 14 | E = nt | F = 1 | G = nt
(26) O=[N+]([O-])c1ccc(Cl)cc1C=NNc1ccccn1
  A = 1 | B = 9 | C = 0 | D = -10 | E = -3 | F = -3 | G = nt
(27) O=[N+]([O-])c1cc(Cl)cc(/C=N\Nc2ccccn2)c1O
  A = nt | B = -15 | C = nt | D = nt | E = 56* | F = nt | G = 25µM*
(28) C[C@H]1CCCCO[C@H](CN(C)S(=O)(=O)c2ccccc2)[C@@H](C)CN([C@@H](C)CO)C(=O)c2cc(NC(=O)CCCN(C)C)ccc2O1
  A = 5 | B = 15 | C = 0 | D = -34 | E = 2 | F = -1 | G = nt
(29) Cc1[nH]n(-c2ccccc2)c(=O)c1C(c1ccc(C(=O)O)cc1)c1c(C)[nH]n(-c2ccccc2)c1=O
  A = 7 | B = nt | C = nt | D = -5 | E = 18* | F = 5 | G = -18%
